Measured values reported in patent US20070092527A1, “Proton-sensing g-protein coupled receptors and dna sequences thereof” (NOVARTIS AG, priority 2003, published 2007).

System: primary human osteoblast precursors isolated from trabecular bone
Assay: IP formation in primary human osteoblast precursors
Conditions: primary cells; mean+/-sem, N=3

For `[H+]` [protons], the “Half-maximal activation of IP formation” value was 7.41+/−0.02 pH.
